## Measured affinities in a library of Ab-14 light chain variants

The measurements come from Li et al. 2023 (doi:10.1038/s41467-023-39022-2) through the FLAb antibody collection.

Antigen: PDVDLGDISGINAS, a 14-residue peptide of the SARS-CoV-2 spike HR2 region.

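The starting antibody came from a phage panning campaign against this peptide. Designed CDR sequences, proposed from the first random library and measured here. Their group label is 14L_Rand (Rand: our label for a block that the file lists under HC and that is probably the random mutants of the ten best first-round binders). AlphaSeq pools MATa yeast showing the antibodies with MATalpha yeast showing the peptide. After mating in shaken culture at 30 °C for 16 h, diploids were selected and their barcode pairs sequenced. Read counts were normalised to the haploid input and turned into Kd by a linear fit to BCL2-family pairs of known affinity, for each replicate. There are six technical replicates.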

Each scFv is VH, the linker GGGGSGGGGSGGGGS, VL, as in the parent Ab-14, and differs from it in the CDRs of the light chain only.
VH: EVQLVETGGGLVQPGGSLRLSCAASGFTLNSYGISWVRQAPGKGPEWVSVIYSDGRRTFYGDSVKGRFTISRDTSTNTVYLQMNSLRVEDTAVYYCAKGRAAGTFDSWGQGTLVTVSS
VL: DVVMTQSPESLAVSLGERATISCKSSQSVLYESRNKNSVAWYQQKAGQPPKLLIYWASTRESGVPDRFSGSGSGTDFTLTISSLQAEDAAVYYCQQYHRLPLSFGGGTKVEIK

Positions count from residue 1 of the parent VL; S25Q puts Q in place of S. Numbers give log10(Kd / nM), so 0 is 1 nM and 3 is 1 µM. Smaller is tighter. "nd" means that the variant was in the library but no mating with the target was seen in that replicate; the authors take this as a sign of poor binding, and no number exists.

| # | changes | replicates, log10 nM | signal with controls |
|---|---|---|---|
| 1 | S25Q+K36C+W56D+R60N+P101L | nd / nd / nd / nd / nd / nd | 0/18 |
| 2 | S25L+S26R+V29T+W56Q+S103T | 0.15 / -0.49 / -0.52 / 0.28 / -0.08 / -0.24 | 0/18 |
| 3 | S25Q+K36E+W56D+Y97G | nd / nd / nd / nd / 1.81 / nd | 1/18 (1.32) |
| 4 | K24Y+S25L+S26R+V29T+S38P | nd / nd / nd / nd / nd / nd | 0/18 |
| 5 | Q27I+V29Y+Y31H+A40S+W56E+S58H | 1.65 / 1.37 / 1.56 / 1.56 / 1.01 / 2.01 | 0/18 |
| 6 | V29F+N35I+W56G+R99N+P101T | nd / nd / nd / nd / nd / nd | 0/18 |
| 7 | S26G+S28G+L30T+A40P+W56G+E61W | 1.39 / 1.27 / 0.14 / 0.46 / 0.46 / 0.45 | 1/18 (1.48) |
| 8 | K24H+Q27P+V29F+S38T+W56N | 1.41 / 1.38 / 1.43 / 1.65 / 1.09 / 1.41 | 0/18 |
| 9 | S25L+S26R+V29T+W56L+E61F | 1.55 / 1.57 / 1.22 / 1.56 / 1.23 / 1.57 | 0/18 |
| 10 | V29W+W56G+P101W | 1.15 / 0.65 / 0.80 / 0.63 / 1.33 / 0.67 | 1/18 (2.13) |
| 11 | Y31F+S33P+W56D+H98W | -0.28 / -0.27 / -0.19 / -0.25 / -0.25 / 0.02 | 0/18 |
| 12 | K24W+V29Y+N35C+W56G+S58Q+P101T | nd / nd / nd / nd / nd / nd | 0/18 |
| 13 | S26E+S28G+R34E+A40N+W56G | nd / nd / nd / nd / nd / 1.79 | 0/18 |
| 14 | Y31F+N35M+W56D+E61C+R99C+S103E | nd / nd / 1.57 / nd / nd / nd | 0/18 |
| 15 | S26L+S28E+L30G+E32H+W56H+S62D | 0.58 / 0.56 / 0.37 / 0.37 / 0.54 / 0.69 | 1/18 (2.81) |
| 16 | S25A+S26L+N35R+W56H+S62D | 1.93 / 1.68 / 2.54 / 2.64 / 2.43 / 1.79 | 0/18 |
| 17 | K24A+S25Q+W56D+A57G | 0.11 / -0.02 / -0.10 / -0.08 / 0.08 / -0.12 | 0/18 |
| 18 | S26G+S28G+W56R+L102P | 2.40 / 2.76 / 1.17 / 1.29 / 1.95 / 1.62 | 0/18 |
| 19 | V29F+Y31K+S38R+W56G+E61M+Y97C+P101T | nd / nd / nd / nd / nd / nd | 0/18 |
| 20 | Q27I+V29Y+E32W+W56E+S58P | nd / nd / nd / nd / nd / nd | 0/18 |
| 21 | K24Y+S26L+S28D+W56H+S62D | 0.30 / 0.57 / 0.83 / 2.15 / 1.18 / 0.02 | 0/18 |
| 22 | S25V+Q27I+V29Y+Y31L+W56E+S58P | nd / nd / nd / nd / nd / nd | 0/18 |
| 23 | S25F+N35T+W56N+Q96W+L100W | 0.61 / 0.66 / 0.55 / 0.37 / 0.81 / 0.98 | 1/18 (2.34) |
| 24 | S25Q+S28W+S33M+W56D+S58W | 0.95 / 1.03 / 0.79 / 0.78 / 0.57 / 0.62 | 0/18 |
| 25 | S26G+Q27E+S28G+W56G+R60E | nd / nd / nd / nd / nd / nd | 0/18 |
| 26 | Y31F+W56D+R60M | 1.03 / nd / 2.12 / 1.16 / 1.00 / 0.17 | 0/18 |
| 27 | S26L+N37F+A40S+W56H+R60V+S62D+Q95A | nd / nd / nd / nd / nd / nd | 0/18 |
| 28 | S25L+S26R+V29T+Y31L+R99V | 1.89 / 1.69 / 1.29 / 2.29 / 1.75 / 1.85 | 1/18 (2.15) |
| 29 | K24H+Q27P+S38N+W56N | -0.22 / -0.45 / -0.43 / -0.56 / -0.54 / -0.33 | 0/18 |
| 30 | S25P+Q27I+V29Y+S33P+W56E | 1.70 / 1.13 / 1.11 / 1.27 / 1.47 / 1.35 | 0/18 |
| 31 | S26L+W56H+S62D+Q95S | nd / nd / nd / nd / nd / nd | 0/18 |
| 32 | S25M+Q27I+V29Y+S33Y+W56E+R60Y | nd / 3.19 / nd / nd / nd / nd | 0/18 |
| 33 | V29Y+L30H+N37K+W56G | 0.46 / 0.61 / 0.72 / 0.74 / 0.64 / 0.66 | 1/18 (2.24) |
| 34 | S25Q+W56D+L102E+S103I | 1.66 / 1.66 / 0.54 / 0.50 / 1.80 / 0.95 | 0/18 |
| 35 | S25V+S26R+V29T+Q95S+R99M | nd / nd / nd / nd / nd / nd | 0/18 |
| 36 | S26L+V39T+W56H+S62D+H98G | 2.25 / 1.30 / 1.61 / 1.55 / 1.93 / 1.76 | 1/18 (2.20) |
| 37 | Q27W+V29W+W56G+Q95N | nd / nd / nd / nd / nd / nd | 0/18 |
| 38 | V29W+S38P+A40L+W56G+T59F | nd / nd / nd / nd / nd / nd | 1/18 (0.61) |
| 39 | K24H+Q27P+W56N+T59G | 0.72 / 0.65 / 0.79 / 0.79 / 1.59 / 1.33 | 0/18 |
| 40 | Y31F+W56D+R99G | 0.88 / 1.47 / 0.64 / 0.92 / 0.84 / 1.06 | 1/18 (1.11) |
| 41 | K24C+S26L+W56H+S62D+P101F+S103C | nd / nd / nd / nd / nd / nd | 0/18 |
| 42 | V29W+W56G+A57N+P101W | nd / nd / nd / nd / nd / nd | 0/18 |
| 43 | S25F+S28W+N35T+W56N | 0.63 / 0.47 / 0.34 / 0.27 / 0.45 / 0.51 | 1/18 (2.89) |

Excerpt, the first 6 entries:

| changes | replicates, log10 nM | signal with controls |
|---|---|---|
| S25Q+K36C+W56D+R60N+P101L | nd / nd / nd / nd / nd / nd | 0/18 |
| S25L+S26R+V29T+W56Q+S103T | 0.15 / -0.49 / -0.52 / 0.28 / -0.08 / -0.24 | 0/18 |
| S25Q+K36E+W56D+Y97G | nd / nd / nd / nd / 1.81 / nd | 1/18 (1.32) |
| K24Y+S25L+S26R+V29T+S38P | nd / nd / nd / nd / nd / nd | 0/18 |
| Q27I+V29Y+Y31H+A40S+W56E+S58H | 1.65 / 1.37 / 1.56 / 1.56 / 1.01 / 2.01 | 0/18 |
| V29F+N35I+W56G+R99N+P101T | nd / nd / nd / nd / nd / nd | 0/18 |

The range of this assay differs from that of the first round, and the authors advise against merging the two. Empty control strains, which show no peptide, gave a signal in 4% of pairings with all light chain designs; the median was 2.64 and 95% of these signals were weaker than 1.59. No background was subtracted. The control count says in how many pairings with the empty strains this scFv gave a signal, with their mean in brackets. The authors' rule: three or more of the six replicates give a measured affinity, fewer mean a poor binder.